{
  "sequences": {"note": "By UniProt entry, the sequences of proteins in these tests, tags left out.", "UniProt P30411, whole entry": "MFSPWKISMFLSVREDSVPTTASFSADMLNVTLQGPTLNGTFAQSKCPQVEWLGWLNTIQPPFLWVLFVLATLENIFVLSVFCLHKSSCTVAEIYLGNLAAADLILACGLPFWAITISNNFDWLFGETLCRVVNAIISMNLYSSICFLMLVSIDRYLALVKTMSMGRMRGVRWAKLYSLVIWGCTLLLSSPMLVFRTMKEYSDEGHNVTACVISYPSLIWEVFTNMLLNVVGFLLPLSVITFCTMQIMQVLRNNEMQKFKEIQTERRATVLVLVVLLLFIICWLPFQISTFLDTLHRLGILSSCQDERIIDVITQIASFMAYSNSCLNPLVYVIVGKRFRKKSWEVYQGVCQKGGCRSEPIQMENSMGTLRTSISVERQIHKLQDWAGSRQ", "UniProt P32299, whole entry": "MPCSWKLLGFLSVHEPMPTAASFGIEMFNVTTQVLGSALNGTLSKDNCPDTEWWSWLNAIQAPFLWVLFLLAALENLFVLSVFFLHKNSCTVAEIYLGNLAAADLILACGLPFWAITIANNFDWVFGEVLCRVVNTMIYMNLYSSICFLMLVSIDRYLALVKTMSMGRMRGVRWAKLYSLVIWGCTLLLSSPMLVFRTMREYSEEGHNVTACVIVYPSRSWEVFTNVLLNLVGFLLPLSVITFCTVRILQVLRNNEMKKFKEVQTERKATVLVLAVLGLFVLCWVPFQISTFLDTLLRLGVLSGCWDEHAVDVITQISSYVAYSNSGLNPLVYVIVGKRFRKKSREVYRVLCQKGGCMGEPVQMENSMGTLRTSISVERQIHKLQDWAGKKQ"},
  "source": "paper PMC11642044",
  "about": "(International Journal of Molecular Sciences, 2024)",
  "key": {"bradykinin B2 receptor [1]": {"molecular_target": "bradykinin B2 receptor (Homo sapiens, UniProt P30411)", "assay": "Bradykinin-induced Ca2+ mobilization via B2R (FLIPR), U87-MG", "type": "cell-based"}, "bradykinin B2 receptor [2]": {"molecular_target": "T1, bradykinin B2 receptor (Mus musculus, UniProt P32299)", "T1 construct": "Gq-coupled receptors (i.e., B2R) that are endogenously expressed in astrocytes; endogenous in cells; host or cells: primary mouse cortical astrocytes (neonatal P2)", "type": "cell-based", "details": "primary astrocytes"}},
  "note": "Like-named read-outs stand apart in the source and are kept apart here.",
  "data": [
    {"substance": "HOE-140", "values": [
      {"measurement": "inhibition of bradykinin-stimulated Ca2+ response, concentration dependence", "setting": "bradykinin B2 receptor [1]", "value": "dose-dependently inhibited"},
      {"measurement": "inhibition of bradykinin-induced Ca2+ signals", "setting": "bradykinin B2 receptor [1]; 5 μM HOE-140, pre-treatment 15 min, bradykinin up to 1 μM, U87-MG", "value": "completely abolished the Ca^2+ signals"},
      {"measurement": "effect on Ca2+ response, HOE alone", "setting": "bradykinin B2 receptor [1]; no bradykinin, U87-MG", "value": "did not affect the Ca^2+ response"},
      {"measurement": "effect on bradykinin-induced Ca2+ transient", "setting": "bradykinin B2 receptor [2]; 0.1 μM HOE-140", "value": "no effect"},
      {"measurement": "effect on bradykinin-induced Ca2+ transient", "setting": "bradykinin B2 receptor [2]; 1 μM HOE-140", "value": "no effect"},
      {"measurement": "effect on bradykinin-induced Ca2+ transient", "setting": "bradykinin B2 receptor [2]; 5 μM HOE-140", "value": "suppressed"},
      {"measurement": "effect on Ca2+ response, HOE alone", "setting": "bradykinin B2 receptor [2]; no bradykinin", "value": "did not affect the Ca^2+ response"}
    ]}
  ]
}
